Tested on: Jurkat T cells
Type: cell-based, human
Details: IL-2 production level in treated group compared to control group; 48 hours treatment, then anti-CD3/anti-CD28 12 hours
Text: Two preliminary screens were designed and performed.
To construct “blood chemical compound library for cell-based screening purposes, components such as antibodies that are difficult to distinguish due to a wide variety, and some supplements that only function at a whole organism level including fish oils and herbs were excluded. Physiological ranges of serum levels of individual blood chemicals are available in the human metabolome database (https://hmdb.ca/) and applied in the experimental design. For first screen 1a, Jurkat T cells were treated with blood chemical library for 48 hours and then activated with 2.5 μg/mL anti-CD3 and 0.5 μg/mL anti-CD28 antibodies for another 12 hours, followed by measurement of IL-2 level in medium supernatant using ELISA kit (Biolegend). For first screen 1b, 1×10^5 PD-1^+ Jurkat T cells were co-cultured with 2×10^4 H596 (PD-L1^+) cells in a well of 96-well plate for 60 hours, and then activated with 2.5 μg/mL anti-CD3 and 0.5 μg/mL anti-CD28 antibodies for another 12 hours, followed by measurement of IL-2 level in medium supernatant using ELISA kit.

Substance | Relative changed percentage (%)
ALBUMIN HUMAN | 38.34%
CHORIONIC GONADOTROPIN HUMAN [CHORIONIC GONADOTROPIN HUMAN,] | 26.68%

Source: patent US20250221953A1 (The University of Chicago, priority 2022, published 2025)
